The experiment concerns the target vesamicol receptors (Rattus norvegicus, UniProt Q62666). In words: Inhibition experiment: inhibition of binding of radioactive-iodine-labeled DRC140 to P2 fractions. Particulars: read-out: IC50 (nM) Average ± S.D, Table 7, Binding site names the inhibitor's own site.

Sequences of proteins named here, by UniProt entry; tags and fusion partners are left off.
UniProt Q62666, whole entry: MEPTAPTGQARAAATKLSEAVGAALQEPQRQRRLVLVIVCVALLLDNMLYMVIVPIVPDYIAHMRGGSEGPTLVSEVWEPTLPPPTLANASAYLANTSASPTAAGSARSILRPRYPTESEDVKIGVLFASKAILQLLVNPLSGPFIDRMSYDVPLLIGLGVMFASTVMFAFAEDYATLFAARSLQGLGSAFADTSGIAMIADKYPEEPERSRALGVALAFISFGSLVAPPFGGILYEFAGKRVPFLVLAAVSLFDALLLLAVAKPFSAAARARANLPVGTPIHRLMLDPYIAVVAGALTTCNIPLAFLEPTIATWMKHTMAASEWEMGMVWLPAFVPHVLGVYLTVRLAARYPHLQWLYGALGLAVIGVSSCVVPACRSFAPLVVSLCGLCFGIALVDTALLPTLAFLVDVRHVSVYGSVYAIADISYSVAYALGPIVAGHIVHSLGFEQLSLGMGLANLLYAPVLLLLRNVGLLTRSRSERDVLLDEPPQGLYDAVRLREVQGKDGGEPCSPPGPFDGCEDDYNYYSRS

Where only a bound is given, the exact number is not on record here.

Broadly, the IC50 is the point on the concentration scale where inhibition reaches its midpoint. Take `CN1[C@@H]2CC[C@H]1C[C@@H](NC(=O)c1nn(C)c3ccccc13)C2`: the half-inhibitory concentration (IC50) is greater than 5000 nM.

The values above are taken from EP1205473A1, “VESAMICOL PIPERAZINE DERIVATIVES AND DRUGS CONTAINING THE SAME” (DAIICHI RADIOISOTOPE LABORATORIES, LTD., priority 1999, dated 2001).
